Values of other authors in US10201587B2, “Methods of inhibiting and treating biofilms using glycopeptide antibiotics” (MELINTA THERAPEUTICS, INC., priority 2008, dated 2019).

Conditions: humans, standard dose (oritavancin 200 mg); cited from earlier work

## CC(=O)NC[C@H]1CN(c2ccc(N3CCOCC3)c(F)c2)C(=O)O1 [Linezolid, linezolid]
  estimated fCmax in plasma: 8 µg/mL
